According to patent US7432303B2, “Chalcone and its analogs as agents for the inhibition of angiogenesis and related disease states” (James and Emory University, priority 1999, dated 2008):

Tested on: SVR cells
Test: SVR cell assay: cell numbers counted at 48 hours, percent inhibition versus control
Assay type: cell-based, murine
Conditions: Mus musculus

`O=C(CCc1ccccc1)c1ccccc1` [Compound 42, 1,3-Diphenyl-1-propanone] showed an inhibition at 3 µg/mL (read-out: Percent Inhibition at a Specified Density (μg/ml): 3) of 16.3%, an inhibition at 6 µg/mL (read-out: Percent Inhibition at a Specified Density (μg/ml): 6) of 49.4% and an inhibition at 9 µg/mL (read-out: Percent Inhibition at a Specified Density (μg/ml): 9) of 75.8%.
